Test results: article PMC4069108 (PLoS ONE, 2014)

Amino acid sequences for entries named in this document (tags omitted).
UniProt P48039, whole entry: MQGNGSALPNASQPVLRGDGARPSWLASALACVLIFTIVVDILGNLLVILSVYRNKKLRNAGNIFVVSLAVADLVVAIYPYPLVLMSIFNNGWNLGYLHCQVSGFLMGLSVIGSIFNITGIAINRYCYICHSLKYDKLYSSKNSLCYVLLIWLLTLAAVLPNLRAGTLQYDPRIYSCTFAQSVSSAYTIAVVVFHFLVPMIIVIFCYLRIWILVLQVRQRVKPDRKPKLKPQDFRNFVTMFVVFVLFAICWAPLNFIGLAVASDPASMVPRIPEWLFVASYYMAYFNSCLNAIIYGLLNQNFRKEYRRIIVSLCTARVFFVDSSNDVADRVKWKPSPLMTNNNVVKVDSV

How the values were obtained:
[1] = molecular target: human melatonin MT1 receptor (MT1 CHO membranes) (Homo sapiens, UniProt P48039); assay: [3H]-melatonin competition, filtration; type: binding; conditions: CHO membranes; […] [3H]-melatonin, pH […] MgCl2, […] °C
[2] = molecular target: recombinant human MT1 receptor purified from Pichia pastoris (MT1 purified) (Homo sapiens, UniProt P48039); assay: [3H]-melatonin competition, PEG precipitation and filtration; type: binding; conditions: purified in […] Fos14/[…] CHAPS; […] [3H]-melatonin, […] CHAPS/[…] CHS, pH […] MgCl2, […] °C

In the case of `COc1ccc2cccc(C(CO)CNC(=O)CF)c2c1` (centres unmarked), the “MT1 CHO membranes / pKi ± SEM” value [1] is reported as 8.53±0.06 pKi (-log M) and the “MT1 purified / pKi ± SEM” value [2] is reported as 9.09±0.21 pKi (-log M).
